{"source": "ChEMBL document CHEMBL4732071", "about": "“Discovery of selective HDAC/BRD4 dual inhibitors as epigenetic probes” (Eur J Med Chem, 2021)", "molecular_target": "T1, Histone deacetylase 8 (Homo sapiens, UniProt Q9BY41)", "T1 sequence (Q9BY41 whole entry)": "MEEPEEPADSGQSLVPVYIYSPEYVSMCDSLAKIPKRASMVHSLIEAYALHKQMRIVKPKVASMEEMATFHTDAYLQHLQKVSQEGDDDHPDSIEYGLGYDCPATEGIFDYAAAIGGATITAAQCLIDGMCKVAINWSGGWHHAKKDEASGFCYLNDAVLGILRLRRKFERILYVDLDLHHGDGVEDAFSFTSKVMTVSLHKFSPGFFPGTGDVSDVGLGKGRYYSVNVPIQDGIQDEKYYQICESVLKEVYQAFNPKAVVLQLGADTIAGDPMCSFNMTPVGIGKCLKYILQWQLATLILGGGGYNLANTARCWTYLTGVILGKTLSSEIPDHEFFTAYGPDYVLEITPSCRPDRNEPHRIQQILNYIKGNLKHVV", "assay": "Inhibition of HDAC8 (unknown origin) by fluorescence based assay"}
{"molecule": "O=C(CCCCCCC(=O)Nc1ccccc1)NO", "note": "[VORINOSTAT]", "values": [{"measurement": "IC50", "value": 205, "unit": "nM"}]}
